Molecular target: opiated K receptor (Cavia porcellus, UniProt P41144)
Experiment: Bond to the opiated K receptor in vitro (displacement of 3H ethylketocyclazocine)
Conditions: read-out: IC50 (50% inhibiting concentration); guinea pigs brains membrane residues, 3H ethylketocyclazocine 1 nM, 25° C. 40 minutes

By UniProt entry, the sequences of proteins in these tests, tags left out. Where a name states a change or a piece, a line headed by the entry shows the natural chain unless it says otherwise.
UniProt P41144: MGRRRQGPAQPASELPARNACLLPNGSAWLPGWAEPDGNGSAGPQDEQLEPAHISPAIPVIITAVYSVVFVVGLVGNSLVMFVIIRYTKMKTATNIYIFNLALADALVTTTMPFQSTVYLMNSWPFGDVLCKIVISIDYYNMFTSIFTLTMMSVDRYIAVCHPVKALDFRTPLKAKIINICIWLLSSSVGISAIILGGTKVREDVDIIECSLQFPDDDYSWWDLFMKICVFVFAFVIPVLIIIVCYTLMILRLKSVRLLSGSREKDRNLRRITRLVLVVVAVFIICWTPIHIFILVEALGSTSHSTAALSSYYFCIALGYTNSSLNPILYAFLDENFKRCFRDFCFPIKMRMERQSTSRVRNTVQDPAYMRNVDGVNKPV

CN1CCC[C@@H]2CCC[C@@H](N(C)C(=O)COc3ccc(Cl)c(Cl)c3)[C@@H]21 (relative stereo)
IC50: 5.3 nM

CN1CCC[C@@H]2CCC[C@@H](N(C)C(=O)Cc3ccc(Cl)c(Cl)c3)[C@@H]21 (relative stereo)
IC50: 5.6 nM

Source: patent US4877796A (priority 1986, dated 1989)
